Measured values: patent publication US4877774A, “Administration of steroid hormones” (The United States of America as represented by the …, priority 1987, dated 1989)

Assay: phase-solubility of testosterone-gamma-cyclodextrin system in water, 25° C.
Experimental: The appropriate proportions in the mixture can be determined by examining the descending curvature of the Bs-type phase solubility of FIG. 1.
The appropriate mixture was determined by examining the descending curvature of the Bs-type phase solubility diagram, as shown in FIG. 1. […] The complex, which precipitated as a microcrystalline powder, was removed by filtration and dried under vacuum at room temperature for 24 hours.

## OC[C@H]1O[C@@H]2O[C@H]3[C@H](O)[C@@H](O)[C@@H](O[C@H]4[C@H](O)[C@@H](O)[C@@H](O[C@H]5[C@H](O)[C@@H](O)[C@@H](O[C@H]6[C@H](O)[C@@H](O)[C@@H](O[C@H]7[C@H](O)[C@@H](O)[C@@H](O[C@H]8[C@H](O)[C@@H](O)[C@@H](O[C@H]9[C@H](O)[C@@H](O)[C@@H](O[C@H]1[C@H](O)[C@H]2O)O[C@@H]9CO)O[C@@H]8CO)O[C@@H]7CO)O[C@@H]6CO)O[C@@H]5CO)O[C@@H]4CO)O[C@@H]3CO [gamma-cyclodextrin]
  concentration of gamma-cyclodextrin at which the complex began to crystallize out: about 13 mM
